Reference: ChEMBL document CHEMBL1148545, “New metabolically stable fatty acid amide ligands of cannabinoid receptors: Synthesis and receptor affinity studies” (Bioorg Med Chem Lett, 2006)
pKi: −log10 of the molar value.

Chains of the proteins cited; added tags and fusions are not shown.
UniProt P34972, whole entry: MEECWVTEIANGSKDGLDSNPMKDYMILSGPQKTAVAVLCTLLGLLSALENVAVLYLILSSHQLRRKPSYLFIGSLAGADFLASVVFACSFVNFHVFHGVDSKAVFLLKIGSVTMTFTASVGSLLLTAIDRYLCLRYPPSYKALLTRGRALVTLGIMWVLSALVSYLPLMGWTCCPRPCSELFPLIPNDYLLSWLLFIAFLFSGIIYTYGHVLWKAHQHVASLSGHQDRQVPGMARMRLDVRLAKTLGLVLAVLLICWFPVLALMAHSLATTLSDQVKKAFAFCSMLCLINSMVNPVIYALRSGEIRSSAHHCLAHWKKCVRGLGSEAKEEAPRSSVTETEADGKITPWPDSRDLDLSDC

Target: Cannabinoid receptor 2 (Homo sapiens, UniProt P34972)
Experiment: Displacement of [3H]CP-55940 from human recombinant CB2 receptor

CCCCC/C=C\C/C=C\C/C=C\C/C=C\CCCC(=O)NCCO [ANANDAMIDE] showed a pKi of 6.74.
